Measured values reported in patent publication US20030092613A1, “Alpha7 nicotinic receptor peptides as ligands for beta amyloid peptides” (priority 2000, published 2003).

Columns and labels:
[1] = tested on: guinea pig hippocampal synaptosomes; assay: ACh release from guinea pig hippocampal synaptosomes (β-amyloid inhibition of K+-evoked release); format: cell-based
Protocol: ACh release from guinea pig hippocampal synaptosomes: Synaptosomes (P2 fraction) were prepared from guinea pig hippocampus as described previously and re-suspended in a Krebs-Ringer solution containing 0.1 μM [methyl-^3H]choline chloride (NEN, Boston, Mass.) and incubated at 37° C. for 30 min. Unincorporated choline was removed by washing and the synaptosomes were resuspended in Krebs-Ringer solution to 10 mg/mL. ACh release from synaptosomes was measured using the parallel superfusion chambers (Hugo Sachs Elektronik, March-Hugstetten, Germany) according to that described earlier (Wang, H. -Y. et al Neuropeptides 1999; 33, 197-205). The synaptosomal suspension (250 μL) was placed in each of the superfision chambers between two circular pieces of GF/B filters (Whatman, England). The chambers were perfused with oxygenated Krebs-Ringer containing 1 μM physostigmine hemisulfate at a flow rate of 0.5 mL/min. The onset of superfusion was defined as time zero (to). Starting 30 min after t0, fractions of the effluent were collected 12 times at 10-minute intervals.
The tissues were treated with peptides and ACh release was evoked by superfusing with 65 mM K^+-Krebs-Ringer (made by equimolar replacement of NaCl with KCl) for 30 seconds. […] Twenty minutes prior to K^+ stimulation (S2, S3 or S4), tissues were superfused with Krebs-Ringer solution that contained various concentrations of compound or vehicle (control) for 30 min. After perfusion, 5 mL of Scintsafe PlusTM 50% (Fisher Scientific) was added to the synaptosomes (on filter) and aliquots of the superfusates (0.5 mL). The amount of ^3H in the superfusate samples was measured by liquid scintillation spectrometry.
Tritiurn efflux into the superfusate was calculated as the fraction of ^3H content in the synaptosomes at the onset of the respective collection period. To calculate the amount of ^3H present in the superfusate after K^+ stimulation, the estimated basal efflux (the average of the 10-minute fractions immediately before and after each stimulation) was subtracted from the total efflux during the 10-minute fraction which began with the 30-second second K^+ stimulus. This difference was then used to calculate the percent of K^+-evoked release of ACh.
Data are expressed as the mean fractional ^3H release±S.E.M. Statistical differences between treatments were tested by Student's t test, two-tailed or the two-factor ANOVA as appropriate. Individual differences in the dose-response curve were evaluated by the Newman-Keuls multiple comparison test.

Biotin-huma7-5 = tested on: Biotin-huma7-5; set-up: species or system human; conditions: read-out: IC50, 125I-α-BTX binding to Biotin-huma7-5
[2] = 100 μM, attenuation of β-amyloid's inhibition on potassium-evoked ACh release
[3] = attenuation of β-amyloid's inhibition on potassium-evoked ACh release, 1 nM β-amyloid1-42, read-out: Inh ACh rel IC50

Row | Structure (SMILES) | ACh rel % Inh @ 100 μM [1, 2] [%] | IC50 ([1]; 3 h) [µM] | IC50 [1, 3] [µM] | IC50 (Biotin-huma7-5) [µM] | ACh rel % Inh @ 100 μM [1] [%]
1 | CSCC[C@H](NC(=O)[C@@H](NC(=O)[C@@H](NC(=O)[C@@H](NC(=O)[C@H](Cc1ccccc1)NC(=O)[C@@H](NC(=O)[C@@H](NC(=O)[C@H](CC(=O)O)NC(=O)[C@@H]1CCCN1C(=O)[C@H](Cc1ccc(O)cc1)NC(=O)[C@@H]1CCCN1C(=O)[C@H](CCC(=O)O)NC(=O)[C@H](CCCCN)NC(=O)[C@H](CS)NC(=O)[C@H](CS)NC(=O)[C@H](CCC(=O)O)NC(=O)[C@H](Cc1ccc(O)cc1)NC(C)=O)C(C)C)[C@@H](C)O)[C@@H](C)O)C(C)C)[C@@H](C)O)C(=O)N[C@@H](CCCNC(=N)N)C(N)=O [compound 8] | 65 | 1 | – | – | –
2 | CC(=O)N[C@@H](Cc1c[nH]cn1)C(=O)N[C@@H](CO)C(=O)N[C@H](C(=O)N[C@H](C(=O)N[C@@H](Cc1ccc(O)cc1)C(=O)N[C@@H](CO)C(=O)N[C@@H](CS)C(=O)N[C@@H](CS)C(=O)N1CCC[C@H]1C(=O)N[C@@H](CC(=O)O)C(=O)N[C@H](C(N)=O)[C@@H](C)O)[C@@H](C)O)C(C)C [compound 21] | 10 | – | > 10 | – | –
3 | CC(=O)N[C@@H](CO)C(=O)N[C@@H](CCC(=O)O)C(=O)N[C@@H](CCCNC(=N)N)C(=O)N[C@@H](Cc1ccccc1)C(=O)N[C@@H](Cc1ccc(O)cc1)C(=O)N[C@@H](C)C(=O)N[C@@H](CS)C(=O)N[C@@H](CS)C(=O)N[C@@H](CCCCN)C(=O)N[C@@H](CCC(=O)O)C(=O)N1CCC[C@H]1C(N)=O [compound 14] | 14 | > 10 | – | 9.5 | –
4 | CC(=O)N[C@@H](CO)C(=O)N[C@@H](CCC(=O)O)C(=O)N[C@@H](CCCNC(=N)N)C(=O)N[C@@H](Cc1ccccc1)C(=O)N[C@@H](Cc1ccc(O)cc1)C(=O)N[C@@H](CCC(=O)O)C(=O)N[C@@H](CS)C(=O)N[C@@H](CS)C(=O)N[C@@H](CCCCN)C(=O)N[C@@H](C)C(=O)N1CCC[C@H]1C(N)=O [compound 3] | – | 0.426 | – | > 100 | 75
5 | CC(=O)N[C@@H](CO)C(=O)N[C@@H](CCC(=O)O)C(=O)N[C@@H](CCCNC(=N)N)C(=O)N[C@@H](Cc1ccccc1)C(=O)N[C@@H](Cc1ccc(O)cc1)C(=O)N[C@@H](CCC(=O)O)C(=O)N[C@@H](CS)C(=O)N[C@@H](CS)C(=O)N[C@@H](CCCCN)C(=O)N[C@@H](CCC(=O)O)C(=O)N[C@@H](C)C(N)=O [compound 17] | 59 | < 10 | – | > 100 | –
6 | N=C(N)NCCC[C@H](NC(=O)[C@H](CCC(=O)O)NC(=O)[C@@H](N)CO)C(=O)N[C@@H](Cc1ccccc1)C(=O)N[C@@H](Cc1ccc(O)cc1)C(=O)N[C@@H](CCC(=O)O)C(=O)N[C@@H](CS)C(=O)N[C@@H](CS)C(=O)N[C@@H](CCCCN)C(=O)N[C@@H](CCC(=O)O)C(=O)N1CCC[C@H]1C(=O)O [compound 19] | 24 | > 10 | – | – | –
7 | CC(=O)N[C@@H](CO)C(=O)N[C@@H](CCC(=O)O)C(=O)N[C@@H](C)C(=O)N[C@@H](Cc1ccccc1)C(=O)N[C@@H](Cc1ccc(O)cc1)C(=O)N[C@@H](CCC(=O)O)C(=O)N[C@@H](CS)C(=O)N[C@@H](CS)C(=O)N[C@@H](CCCCN)C(=O)N[C@@H](CCC(=O)O)C(=O)N1CCC[C@H]1C(N)=O [compound 1] | 70 | 0.277 | – | 9.6 | –
8 | CC(=O)N[C@@H](CO)C(=O)N[C@@H](C)C(=O)N[C@@H](CCCNC(=N)N)C(=O)N[C@@H](Cc1ccccc1)C(=O)N[C@@H](Cc1ccc(O)cc1)C(=O)N[C@@H](CCC(=O)O)C(=O)N[C@@H](CS)C(=O)N[C@@H](CS)C(=O)N[C@@H](CCCCN)C(=O)N[C@@H](CCC(=O)O)C(=O)N1CCC[C@H]1C(N)=O [compound 11] | – | > 10 | – | 8.4 | 13
9 | CC(=O)N[C@@H](CO)C(=O)N[C@@H](CCC(=O)O)C(=O)N[C@@H](CCCNC(=N)N)C(=O)N[C@@H](Cc1ccccc1)C(=O)N[C@@H](C)C(=O)N[C@@H](CCC(=O)O)C(=O)N[C@@H](CS)C(=O)N[C@@H](CS)C(=O)N[C@@H](CCCCN)C(=O)N[C@@H](CCC(=O)O)C(=O)N1CCC[C@H]1C(N)=O [compound 13] | 18 | > 10 | – | > 100 | –
10 | CC[C@H](C)[C@H](NC(=O)[C@H](CCC(=O)O)NC(=O)[C@H](C)NC(=O)[C@@H]1CSSC[C@H](NC(=O)[C@H](CCC(=O)O)NC(=O)[C@H](Cc2ccc(O)cc2)NC(=O)[C@H](CCCCN)NC(=O)[C@H](CCCNC(=N)N)NC(=O)[C@@H](NC(=O)[C@H](CC(N)=O)NC(C)=O)[C@@H](C)O)C(=O)N1)C(N)=O [compound 23] | 16 | – | – | – | –
11 | CC[C@H](C)[C@H](NC(C)=O)C(=O)N1CCC[C@H]1C(=O)NCC(=O)N[C@@H](CCCCN)C(=O)N[C@@H](CCCNC(=N)N)C(=O)N[C@@H](CO)C(=O)N[C@@H](CCC(=O)O)C(=O)N[C@@H](CCCNC(=N)N)C(=O)N[C@@H](Cc1ccccc1)C(=O)N[C@@H](Cc1ccc(O)cc1)C(=O)N[C@@H](CCC(=O)O)C(=O)N[C@@H](CS)C(=O)N[C@@H](CS)C(=O)N[C@@H](CCCCN)C(=O)N[C@@H](CCC(=O)O)C(=O)N1CCC[C@H]1C(=O)N[C@@H](Cc1ccc(O)cc1)C(=O)N1CCC[C@H]1C(N)=O [compound 5] | 79 | 0.71 | – | – | –
12 | CC(=O)N[C@@H](CO)C(=O)N[C@@H](CCC(=O)O)C(=O)N[C@@H](CCCNC(=N)N)C(=O)N[C@@H](Cc1ccccc1)C(=O)N[C@@H](Cc1ccc(O)cc1)C(=O)N[C@@H](CCC(=O)O)C(=O)N[C@@H](CS)C(=O)N[C@@H](CS)C(=O)N[C@@H](CCCCN)C(=O)N[C@@H](CCC(=O)O)C(=O)N1CCC[C@H]1C(N)=O [compound 7] | 89 | 0.125 | – | 19 | –
13 | CC(=O)N[C@@H](CO)C(=O)N[C@@H](CCC(=O)O)C(=O)N[C@@H](CCCNC(=N)N)C(=O)N[C@@H](Cc1ccccc1)C(=O)N[C@@H](Cc1ccc(O)cc1)C(=O)N[C@@H](CCC(=O)O)C(=O)N[C@@H](CS)C(=O)N[C@@H](CS)C(=O)N[C@@H](C)C(=O)N[C@@H](CCC(=O)O)C(=O)N1CCC[C@H]1C(N)=O [compound 16] | 19 | > 10 | – | 1.3 | –
14 | CC[C@H](C)[C@H](NC(=O)[C@H](CC(=O)O)NC(=O)[C@@H]1CCCN1C(=O)[C@H](Cc1ccc(O)cc1)NC(=O)[C@@H](NC(=O)[C@H](CCC(=O)O)NC(=O)[C@H](C)NC(=O)[C@H](CS)NC(=O)[C@H](CS)NC(=O)[C@H](CCC(=O)O)NC(=O)[C@H](Cc1ccc(O)cc1)NC(=O)[C@H](CCCCN)NC(=O)[C@H](CCCNC(=N)N)NC(=O)[C@@H](NC(=O)[C@H](CC(N)=O)NC(=O)[C@H](Cc1ccc(O)cc1)NC(=O)[C@@H](NC(=O)CNC(=O)[C@@H](NC(=O)[C@H](C)NC(C)=O)C(C)C)[C@@H](C)O)[C@@H](C)O)[C@@H](C)CC)C(N)=O [compound 24] | 15 | – | > 10 | – | –
15 | CC(=O)N[C@@H](Cc1ccccc1)C(=O)N[C@@H](Cc1ccc(O)cc1)C(=O)N[C@@H](CCC(=O)O)C(=O)N[C@@H](CS)C(=O)O [compound 26] | 54 | – | – | – | –
16 | CC(=O)N[C@@H](Cc1ccc(O)cc1)C(=O)N[C@@H](CCC(=O)O)C(=O)N[C@@H](CS)C(=O)N[C@@H](CS)C(N)=O [compound 20] | 62 | < 10 | – | – | –
17 | CC[C@H](C)[C@H](NC(=O)[C@H](CCC(=O)O)NC(=O)[C@H](C)NC(=O)[C@H](CS)NC(=O)[C@H](CS)NC(=O)[C@H](CCC(=O)O)NC(=O)[C@H](Cc1ccc(O)cc1)NC(=O)[C@H](CCCCN)NC(=O)[C@H](CCCNC(=N)N)NC(=O)[C@@H](NC(=O)[C@H](CC(N)=O)NC(C)=O)[C@@H](C)O)C(N)=O [compound 22] | 16 | – | – | – | –
18 | CC[C@H](C)[C@H](NC(=O)CNC(C)=O)C(=O)N1CCC[C@H]1C(=O)NCC(=O)N[C@@H](CCCCN)C(=O)N[C@@H](CCCNC(=N)N)C(=O)N[C@@H](CO)C(=O)N[C@@H](CCC(=O)O)C(=O)N[C@@H](CCCNC(=N)N)C(=O)N[C@@H](Cc1ccccc1)C(=O)N[C@@H](Cc1ccc(O)cc1)C(=O)N[C@@H](CCC(=O)O)C(=O)N[C@@H](CS)C(=O)N[C@@H](CS)C(=O)N[C@@H](CCCCN)C(N)=O [compound 4] | 73 | 1.21 | – | – | –

Where two headings read alike, the source gives them in different places.
